Source: publication PMC5641120, “Small-molecule inhibitors of PD-1/PD-L1 immune checkpoint alleviate the PD-L1-induced exhaustion of T-cells” (Oncotarget, 2017)

Target: PD-1/PD-L1 immune checkpoint
Experiment: PD1/PD-L1 checkpoint assay (ECs co-cultured with aAPCs, NFAT-luciferase reporter)
Type: cell-based, human
Settings: Hill fit of luciferase activity, 6 h co-culture of ECs and aAPCs
Description: A T lymphocyte-like cell line (Jurkat) modified to constitutively express PD-1 and carrying a luciferase reporter gene driven by TCR-inducible NFAT response element (Effector Cells, ECs) was used in T cell activation experiments. When antigen-presenting surrogate CHO cells, constitutively expressing the TCR agonist and PD-L1 (aAPCs) are presented to these ECs in co-culture, TCR signaling is repressed by PD-1 and the reporter remains silenced. Agents efficiently interfering with the PD-1/PD-L1 interaction activate the expression of the reporter gene resulting in the increase in luminescence intensity.
To verify the potency of BMS compounds in the inhibition of the PD-1/PD-L1 interactions, a cell-based model of the PD-1/PD-L1 immune checkpoint blockade was used. […]
The aAPCs were seeded in white 96-well plates at the density of 10 000 per well in the culture medium 24 h prior to the assay. […] After incubation for 10 min, luminescence was quantified using FlexStation 3 (Molecular Devices). Half maximal effective concentrations (EC50) and maximal luminescence values (RLUmax) were determined by fitting the Hill equation to the experimental data.

EC50 | Substance
1.15 ± 0.36 nM | nivolumab: anti-PD-1 antibody
0.551 ± 0.052 nM | pembrolizumab: anti-PD-1 antibody
